Two compounds from patent publication US9157917B2, “Applications of Indoloindole and Indoloquinoline dyes” (Biosynth AG, priority 2010, dated 2015) can be followed below.

The test system of experiment [1] is phosphatase coupled goat anti rabbit antibody. In words: Dot blot on nitrocellulose membrane. The class given is biochemical. The note with it: 0.4 mM in assay buffer pH 9.5, after a few minutes of incubation.
A further experiment deals with E. coli. Nature of the experiment: Nutrient agar with oil in water emulsion. The class given is cell-based. The note with it: 0.4 mM, 16 hours.

Each structure is given as a SMILES string.

Turning to `COc1ccc(C(=O)c2ccccc2-n2cc(OP(=O)(O)O)c3ccccc32)c(OC)c1` [Aldol™ 470 phosphate], the “Fluorescence of spot containing beta-galactosidase under UV 366 nm light” value in experiment [1] is reported as “yellow fluorescence”. With `Cn1cccc1C(=O)c1ccccc1-n1cc(O[C@@H]2O[C@H](CO)[C@H](O)[C@H](O)[C@H]2O)c2ccc(Cl)cc21` [Aldol™ 495 beta-D-galactoside], the “Fluorescence of E. coli colonies under UV 366 nm” value in the experiment on E. coli (nutrient agar with paraffin oil, Tween 80 and 1,2-dipalmitoyl-rac-glycero-3-phosphocholine) is “green fluorescent”; with E. coli (nutrient agar without further additions), “did not show any fluorescence”.
